pCIP destab = p/CIP-EGFP fusion destabilizers, primary screen, fluorescence, F442A cells. 16 h. decrease of EGFP signal, % at 10 µM. hit rate 0.01% among 290,000. AID 1984, 2009;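 active means EGFP signal decrease of at least 30% at 10 µM or well 3 SD below plate mean, unless failing retest; inactive means the rest, including hits failing retest or dose response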
PKA-R2B act = activators of PKA-R2B holoenzyme, primary screen, biochemical, fluorescence polarization, Cy5-IP20, human. PKA-R2B holoenzyme dissociation; R2B truncated from residue 108, S112A mutant; 0% DMSO only, 100% 113 µM cGMP. activation, % at 11.4 µM. cAMP-dependent protein kinase catalytic subunit beta (Homo sapiens) + cAMP-dependent …. hit rate 0.079% among 340,000;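 active means activation above a cutoff set at the mean over all compounds plus 3 SD, cut at about 18% in these data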;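 further: higher means more holoenzyme dissociation and a rise in polarization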
UUG fidelity = alters start codon recognition fidelity in yeast; S. cerevisiae UUG-firefly luciferase reporter, luminescence/redox ratio; activity score, % at 18.7 µM; actives 0.13% (n = 350,000); AID 602363;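 active = replicate mean at a twofold rise or more, about +100% in these data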;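 also: firefly luciferase made from a UUG start codon reports start codon fidelity; reporter light over untreated wells divided by growth signal over untreated wells; some hits fall short of that in this replicate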
PKA-R1A act = activators of PKA-R1A holoenzyme, primary screen, biochemical, fluorescence polarization, Cy5-IP20, bovine R1A, mouse PKAc; PKA-R1A dissociation; scaled: DMSO 0%, 113 µM cGMP 100%; hit rate 0.083% among 340,000; activation, % at 11.4 µM; cAMP-dependent protein kinase type I-alpha regulatory subunit (Bos taurus) + …;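 active means percent activation above the mean of all tested compounds plus 3 SD, cut at about 19% in these data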;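 further: higher means more PKAc released from R1A so a rise in polarization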
Granule exo inh = LAMP-1 surface exposure blockers, TALL-104 cells – cell-based, flow cytometry, MLPCN library, primary screen | inhibition, % at 10 µM | AID 651702, 2012 | hit rate 0.66% among 360,000 | TALL-104 LAMP-1 surface exposure; cells stimulated with thapsigargin and PMA;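 active means inhibition above about 55%, limit read from the data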
ABCB6 inh 2 = ABCB6 transporter inhibitors, primary screen, K562-ABCB6 cells, flow cytometry, MLPCN library; fluorescence ratio to DMSO, % at 10 µM; hit rate 0.19% among 360,000; ATP-binding cassette sub-family B member 6 (Homo sapiens), Q9NP58; K562-ABCB6 porphyrin accumulation, 1 h; active compounds read low;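 active means fluorescence ratio to DMSO below 75%, the collection mean minus 3 SD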;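 further: signal is porphyrin accumulated inside mitochondria; lower ratio means ABCB6 inhibition with less porphyrin fluorescence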
Granule exo CP1 = inhibitors of lytic granule exocytosis, confirmation, TALL-104 cells, flow cytometry, Cherry Pick01. inhibition, % at 10 µM. hit rate 11% among 1,500. AID 651954, 2012. shares compounds with Granule exo inh. LAMP-1 externalization; stimulated with PMA plus thapsigargin; in the data active means inhibition above about 60%
Hits are given with their value; n = inactive; x = not tested or not shown. This is a sample that favours compounds with a hit; in the whole collection about 0.94% have one here.

SMILES | pCIP destab | PKA-R2B act | UUG fidelity | PKA-R1A act | Granule exo inh | ABCB6 inh 2 | Granule exo CP1
COc1cc(CN(C)CC2CCCN(CCc3cccc(C(F)(F)F)c3)C2)ccc1O (stereo not drawn) | n | n | n | n | 56 | n | n
Cc1nn(C)cc1NC(=O)C[C@@H]1CC[C@H]2[C@@H](COc3ccc(NC(=O)Nc4cccc(Cl)c4)cc3C(=O)N2C)O1 | x | x | n | x | x | x | x
C[C@H]1CN([C@@H](C)CO)C(=O)c2cc(-c3ccccc3F)cnc2O[C@H]1CN(C)C(=O)CN(C)C | x | x | n | x | x | x | x
COCCCn1c(SCc2ccccc2)nc2cc(OC)c(OC)cc2c1=N | n | n | n | n | 84 | n | n
COCCCn1c(SCc2cccc(C(F)(F)F)c2)nc2cc(OC)c(OC)cc2c1=N | n | n | n | n | n | n | x
Cc1noc(C)c1S(=O)(=O)Nc1ccc2c(c1)C(=O)N([C@@H](C)CO)C[C@@H](C)[C@@H](CN(C)C)OCCCC[C@@H](C)O2 | x | x | n | x | x | x | x
CCCCCCN1C[C@H](n2cc(-c3ccc(F)cc3)nn2)[C@@H](O)C[C@@H]1c1ccc(C)cc1 | x | n | n | n | 62 | n | n
O=C(C[C@H]1C=C[C@@H](NC(=O)c2cccc(F)c2)[C@@H](CO)O1)NCCN1CCCC1 | x | x | n | x | x | x | x
O=C(COc1ccccc1)Nc1cc(C(F)(F)F)ccc1N1CCCC1 | n | n | n | n | 74 | n | n
O=C(COc1ccccc1)Nc1ccccc1N1CCCCC1 | n | n | n | n | n | n | x
COc1ccc(C2CCCN2CC(O)COc2ccccc2C(C)C)cc1 (stereo not drawn) | n | n | n | n | 63 | n | n
O=C(CN1C(=O)C(=O)c2ccccc21)c1ccc(Cl)cc1 | n | n | n | n | 63 | n | n
CC(C)(c1ccccc1)c1ccc(OCC(O)CNC2CCN(Cc3ccccc3)CC2)cc1 (stereo not drawn) | n | n | n | n | 62 | n | 85
CCOc1ccc(OCC(O)CNC2CCN(Cc3ccccc3)CC2)cc1 (stereo not drawn) | n | n | n | n | n | n | x
OCCN1CCN(CC(O)COc2ccc(C34CC5CC(CC(C5)C3)C4)cc2)CC1 (stereo not drawn) | n | n | x | n | 72 | n | 79
O=C(CCCc1ccccc1)Nc1ccnn1C1CCN(Cc2ccccc2)CC1 | n | n | n | n | 64 | n | n
CCN(CC)S(=O)(=O)c1ccc(N2CCCC2)c(NC(=O)c2ccc(OC)cc2OC)c1 | n | n | x | n | 72 | n | n
CCN(CC)S(=O)(=O)c1ccc(N2CCCC2)c(NC(=O)Cc2ccc(OC)cc2)c1 | n | n | n | n | n | n | x
O=C(C[C@@H]1C=C[C@H](NC(=O)C2CC2)[C@H](CO)O1)Nc1ccccc1 | x | x | n | x | x | x | x
C[C@@H]1CN([C@H](C)CO)C(=O)c2cc(/C=C/c3ccccc3)cnc2O[C@@H]1CN(C)S(=O)(=O)c1cccs1 | x | x | n | x | x | x | x
Clc1ccc(CN2CCc3c([nH]c4ccccc34)C2)cc1Cl | n | n | n | n | 58 | n | n
Clc1cccc(CN2CCc3c([nH]c4ccccc34)C2)c1 | n | n | n | n | 58 | n | n
COc1cccc(-c2nc(N3CCCCC3)c3ccccc3n2)c1O | x | n | n | n | 77 | n | n
CCC(C)Nc1nc(-c2cccc(OC)c2O)nc2ccccc12 (stereo not drawn) | n | n | n | n | 76 | n | 107
COc1cccc(-c2nc(N3CCN(c4ccccc4)CC3)c3ccccc3n2)c1O | n | n | n | n | n | n | x
SMILES | pCIP destab | PKA-R2B act | UUG fidelity | PKA-R1A act | Granule exo inh | ABCB6 inh 2 | Granule exo CP1
COc1cc2c(cc1NC(=O)CSc1nnc(COc3ccc(Cl)cc3)n1C)oc1ccccc12 | n | n | n | n | 60 | n | n
COc1cccc(CN2C(=O)C(C)N(C(=O)c3c(F)cccc3F)c3ccccc32)c1 (stereo not drawn) | n | n | n | n | 56 | n | n
COc1ccccc1N(C)S(=O)(=O)c1ccc(Cl)c(C(=O)OCc2c(C)noc2C)c1 | n | n | x | n | 76 | n | n
COc1ccc(CN(C)CC(O)COc2ccc(-c3ccccc3)cc2)cc1OC (stereo not drawn) | n | n | n | n | 63 | n | n
CCOc1ccc(CN(C)CC(O)COC(c2ccc(OC)cc2)c2ccc(OC)cc2)cc1 (stereo not drawn) | n | n | n | n | 69 | n | n
CCC(=O)N1C[C@@H](C)[C@H](OC)CN(C)C(=O)c2cc(NC(=O)C3CCCCC3)ccc2OC[C@@H]1C | x | x | n | x | x | x | x
COc1cc(C)c(CN2CCC(Cc3ccccc3)CC2)cc1C | n | n | n | n | 56 | n | n
COc1cc(OC)c(CN2CCC(Cc3ccccc3)CC2)cc1Br | n | n | n | n | n | n | x
COc1ccc(OC)c(CN2CCC(Cc3ccccc3)CC2)c1 | n | n | n | n | 60 | n | n
CCOc1ccc2[nH]c3c(N4CCc5ccccc5C4)ncnc3c2c1 | n | x | n | x | 97 | n | 98
C[C@@H]1CN([C@@H](C)CO)C(=O)c2cc(-c3cccnc3)cnc2O[C@@H]1CN(C)C(=O)Cc1cccnc1 | x | x | n | x | x | x | x
O=c1c2ccccc2sn1-c1cccc(Cl)c1 | x | n | n | n | n | n | x
CC(=O)Nc1ccc2c(=O)n(-c3ccccc3)sc2c1 | x | n | n | n | 69 | n | 62
O=c1c2ccccc2sn1-c1ccccc1F | x | n | n | n | 69 | n | 102
O=c1c2ccccc2sn1-c1ccccc1 | n | n | 195 | n | 99 | n | 105
N#Cc1ccc2c(=O)n(-c3ccccc3)sc2c1 | x | n | n | n | n | n | x
C[C@H]1CN([C@@H](C)CO)C(=O)Cc2cc(NC(=O)Nc3ccc(F)cc3)ccc2O[C@H]1CN(C)C(=O)Nc1ccccc1 | x | x | n | x | x | x | x
CCOc1ccc(S(=O)(=O)N2CCN(Cc3ccc4c(c3)OCO4)CC2)cc1C | n | n | n | n | 65 | n | n
COc1ccc(S(=O)(=O)N2CCN(Cc3ccc4c(c3)OCO4)CC2)cc1F | n | n | n | n | n | n | x
Cn1cnc(S(=O)(=O)N[C@@H]2C=C[C@H](CC(=O)Nc3ccccc3)O[C@@H]2CO)c1 | x | x | n | x | x | x | x
C=CCSc1nc2c(C(=O)OCC)nnn2c2ccccc12 | n | n | n | n | 81 | n | n
CCCNC(=O)N(C)C[C@@H]1Oc2ncc(-c3ccc(OC)cc3)cc2C(=O)N([C@H](C)CO)C[C@@H]1C | x | x | n | x | x | x | x
